This passage reports IC50 results from ChEMBL document CHEMBL3091350, “Synthesis and evaluation of the antimalarial, anticancer, and caspase 3 activities of tetraoxane dimers” (Bioorg Med Chem, 2013).

Experiment [1] deals with KB. The experiment is described as follows: Cytotoxicity against human KB cells assessed as cell viability after 24 hrs by MTT assay. (Tetrazolium assays rely on reduction of a dye to a coloured formazan, in cell work by metabolically active cells.)
Experiment [2] is described as follows: Cytotoxicity against human HT29-AK cells assessed as cell viability after 24 hrs by MTT assay.
Experiment [3] has as its system HL-60. Put plainly: Cytotoxicity against human HL60 cells assessed as cell viability after 24 hrs by MTT assay.

The structures appear in SMILES notation.

By IC50 is commonly meant the concentration at which inhibition is half-maximal.

Consider `CC1(CCC(=O)NCCCCNC(=O)CCC2(C)OOC3(CCCCC3)OO2)OOC2(CCCCC2)OO1` (stereo unspecified), for which, in experiment [1], the half-maximal inhibitory concentration (IC50) came out at 40.7 µM.

Regarding `CC1(CCC(=O)NCCCNC(=O)CCC2(C)OOC3(CCCCC3)OO2)OOC2(CCCCC2)OO1` (stereo unspecified), the IC50 in experiment [2] came out at 41.8 µM; in experiment [3] it was 6.6 µM.

`CC1(CCC(=O)NCCNC(=O)CCC2(C)OOC3(CCCCC3)OO2)OOC2(CCCCC2)OO1` (stereo unspecified): the results for the IC50 in experiment [1], in experiment [2] and in experiment [3] were 39.3 µM, 37.2 µM and 7 µM, respectively.

Regarding `CC1(CCC(=O)Nc2cccc(NC(=O)CCC3(C)OOC4(CCCCC4)OO3)c2)OOC2(CCCCC2)OO1` (stereo unspecified), the IC50 in experiment [1] was 7.77 µM; in experiment [2], 13.6 µM; in experiment [3], 7.1 µM.

`CC1(CCC(=O)Nc2ccc(NC(=O)CCC3(C)OOC4(CCCCC4)OO3)cc2)OOC2(CCCCC2)OO1` (stereo unspecified): the IC50 in experiment [2] is 3.8 µM; in experiment [3], 12.2 µM.
